Measured values reported in patent EP4837906A1, “NOVEL COMPOUND USED AS CBP/PA300 INHIBITOR, AND PHARMACEUTICAL COMPOSITION FOR PREVENTING OR TREATING CANCER, INFLAMMATORY DISORDERS, OR AUTOIMMUNE DISEASES COMPRISING SAME AS ACTIVE INGREDIENT” (dated 2026).
pIC50: −log10 of the molar value.

Chains of the proteins cited; added tags and fusions are not shown. Residues count along the entry.
UniProt Q92793, 1085-1192 limits assumed: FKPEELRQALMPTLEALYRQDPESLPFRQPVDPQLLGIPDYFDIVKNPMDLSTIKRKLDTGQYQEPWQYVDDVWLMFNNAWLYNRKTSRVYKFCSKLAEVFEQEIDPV

Legend:
CBP BRD protein = CBP BRD protein (Homo sapiens, UniProt Q92793); test: CBP inhibitory activity, TR-FRET assay of CBP bromodomain with Ac-H4 peptide; details: read-out: CBP BRD IC50, CBP BRD protein 7.5 nM, Ac-H4 peptide 85 nM, 2 hours at room temperature
Protocol: CBP inhibitory activity was measured using a time resolved fluorescence resonance energy transfer (TR-FRET) experiment to verify the activity of CBP bromodomain.
(§1) The assay was performed in a final volume of 14 µl, optimized based on a CREBBP time resolved fluorescence resonance energy transfer (TR-FRET) assay kit (BPS Bioscience, cat. 32619) to maximize an assay window, and performed in a final volume of 14 µl, while maximizing the assay window. A TR-FRET fluorescence acceptor and a Tb donor were diluted in an assay buffer containing 2-[4-(2-hydroxyethyl)piperazin-1-yl]ethanesulfonic acid (hereafter, referred to as an assay buffer, BPS Bioscience, cat. 33012), and 3 µl of each solution was transferred to all wells of a white 384-low-volume well plate (Corning, cat. 4513). 2 µl of 4X Ac-H4 peptide (final concentration 85 nM) was transferred to high control wells and test wells. Each compound was prepared at 10 concentration points by serially diluting 3-fold from the highest concentration in a dimethyl sulfoxide solvent. The compound at each concentration was then diluted in the assay buffer to prepare a diluted compound solution that was 4-fold more concentrated than the final concentration. 2 µl of each compound or dimethyl sulfoxide prepared in this way was distributed into an assay plate so that the final test concentration was a minimum of 0.5 µM to a maximum of 10 µM (final dimethyl sulfoxide concentration 1%). 6 µL of 1X assay buffer was added to low control wells and 2 µl was added to high control and test wells. Then, 2 µl of 4X CBP BRD protein (final concentration 7.5 nM, BPS bioscience, cat 31128) was added to initiate a PPI reaction. The plate was reacted at room temperature for 2 hours before measuring the signal. The TR-FRET signal was measured using an EnVision Multilabel plate reader (PerkinElmer; Mirror LNACE/DELFIA Dual/Bias).
For data analysis, the values of each well were obtained using a TR-FRET ratio ((Signal 665 nm/Signal 615 nm)X20000. Data analysis was performed using the TR-FRET ratio ((Signal 665 nm/Signal 615 nm)X20000. Data were reported as percent inhibition compared to control wells based on the following equation: %Activity = ((FRETcompound - FRETLow av)/(FRETHigh av - FRETLow av))X100. IC50 analysis was determined by standard 4 parameter curve fitting according to an algorithm using GraphPad Prism 7.0 (GraphPad Software Inc., La Jolla, CA, USA). All data are expressed as mean ± standard error of the mean (SEM).

BRD4 (BD1) protein = BRD4 (BD1) protein (Homo sapiens, UniProt O60885); test: BRD4 inhibitory activity, TR-FRET assay of BRD4 bromodomain with Ac-H4 peptide; details: read-out: BRD4 (BD1) IC50, BRD4 (BD1) protein 7.5 nM, Ac-H4 peptide 15 nM, 2 hours at room temperature
Protocol: BRD4 inhibitory activity was measured using a time resolved fluorescence resonance energy transfer (TR-FRET) experiment to verify the activity of BRD4 bromodomain.
as §1, with “32613)” for “32619)”, “15” for “85”, “BRD4 (BD1)” for “CBP BRD”, “31040)” for “31128)”, “Dual/Bias). For data analysis, the values of each well were obtained using a TR-FRET ratio ((Signal 665 nm/Signal 615 nm) X20000. Data analysis was performed using the TR-FRET ratio ((Signal 665 nm/Signal 615 nm) X20000. Data were reported as percent inhibition compared to control wells based on the following equation: %Activity = ((FRETcompound - FRETLow av)/(FRETHigh av - FRETLow av)) X100. IC50 analysis was determined by standard 4 parameter curve fitting according to an algorithm using GraphPad Prism 7.0 (GraphPad Software Inc., La Jolla, CA, USA). All data are expressed as mean ± standard error of the mean (SEM).” for “Dual/Bias).”

| SMILES | pIC50 (CBP BRD protein) | pIC50 (BRD4 (BD1) protein) |
| --- | --- | --- |
| CNC(=O)c1ccc(-c2ccc3c(c2)nc(C(C)C)n3-c2ccc3c(c2)n(C)c(=O)n3C)cc1F | 5.30 to 6.30 | < 5.30 |
| CNC(=O)c1ccc(-c2ccc3c(c2)nc(C2CCN(C(=O)OC(C)(C)C)CC2)n3-c2ccc3c(c2)n(C)c(=O)n3C)cc1F | < 5.30 | < 5.30 |
| CCN1CCC(c2ccc3c(c2)nc(-c2c[nH]c4cc(C)ccc24)n3-c2ccc3c(c2)n(C)c(=O)n3C)CC1 | 5.30 to 6.30 | < 5.30 |
| CNC(=O)c1ccc(-c2ccc3c(c2)nc(-c2cccc4c2CCCC4)n3-c2ccc3c(c2)n(C)c(=O)n3C)cc1F | > 6.30 | < 5.30 |
| Cn1cncc1-c1nc2cc(-c3ccc(CO)cc3)ccc2n1-c1ccc2c(c1)n(C)c(=O)n2C | > 6.30 | < 5.30 |
| Cn1cncc1-c1nc2cc(-c3ccc(NC(=O)OC(C)(C)C)cc3)ccc2n1-c1ccc2c(c1)n(C)c(=O)n2C | 5.30 to 6.30 | < 5.30 |
| CNC(=O)c1ccc(-c2ccc3c(c2)nc(-c2cccs2)n3-c2ccc3c(c2)n(C)c(=O)n3C)cc1F | < 5.30 | < 5.30 |
| CNC(=O)c1ccc(-c2ccc3c(c2)nc(C(C)(C)N)n3-c2ccc3c(c2)n(C)c(=O)n3C)cc1F | > 6.30 | < 5.30 |
| CNC(=O)c1ccc(-c2ccc3c(c2)nc(-c2cocn2)n3-c2ccc3c(c2)n(C)c(=O)n3C)cc1F | < 5.30 | < 5.30 |
| CNC(=O)c1ccc(-c2ccc3c(c2)nc(C2CCCCC2)n3-c2ccc3c(c2)n(C)c(=O)n3C)cc1F | < 5.30 | < 5.30 |
| Cc1ccc2c(-c3nc4cc(C5=CCNCC5)ccc4n3-c3ccc4c(c3)n(C)c(=O)n4C)c[nH]c2c1 | 5.30 to 6.30 | < 5.30 |
| CNC(=O)c1ccc(-c2ccc3c(c2)nc(-c2cccc(OC)c2C)n3-c2ccc3c(c2)n(C)c(=O)n3C)cc1F | > 6.30 | < 5.30 |
| Cn1cncc1-c1nc2cc(-c3ccc(C(=O)O)cc3)ccc2n1-c1ccc2c(c1)n(C)c(=O)n2C | > 6.30 | < 5.30 |
| Cc1cc(-c2ccc3c(c2)nc(-c2cncn2C)n3-c2ccc3c(c2)n(C)c(=O)n3C)ccn1 | > 6.30 | 5.30 to 6.30 |
| CNC(=O)c1ccc(-c2ccc3c(c2)nc(-c2ccccc2Cl)n3-c2ccc3c(c2)n(C)c(=O)n3C)cc1F | 5.30 to 6.30 | < 5.30 |
| Cn1cncc1-c1nc2cc(-c3ccc(C(N)=O)cc3)ccc2n1-c1ccc2c(c1)n(C)c(=O)n2C | > 6.30 | < 5.30 |
| CNC(=O)c1ccc(-c2ccc3c(c2)nc(C2CCNCC2)n3-c2ccc3c(c2)n(C)c(=O)n3C)cc1F | < 5.30 | < 5.30 |
| CNC(=O)c1ccc(-c2ccc3c(c2)nc(-c2cccnc2Cl)n3-c2ccc3c(c2)n(C)c(=O)n3C)cc1F | 5.30 to 6.30 | < 5.30 |
| CNC(=O)c1ccc(-c2ccc3c(c2)nc(-c2ccccc2OC)n3-c2ccc3c(c2)n(C)c(=O)n3C)cc1F | > 6.30 | < 5.30 |
| CNC(=O)c1ccc(-c2ccc3c(c2)nc(-c2cscn2)n3-c2ccc3c(c2)n(C)c(=O)n3C)cc1F | < 5.30 | < 5.30 |
| CNC(=O)c1ccc(-c2ccc3c(c2)nc(-c2[nH]cnc2C)n3-c2ccc3c(c2)n(C)c(=O)n3C)cc1F | 5.30 to 6.30 | 5.30 to 6.30 |
| CNC(=O)c1ccc(-c2ccc3c(c2)nc(C(C)(C)C#N)n3-c2ccc3c(c2)n(C)c(=O)n3C)cc1F | > 6.30 | < 5.30 |

| SMILES | pIC50 (CBP BRD protein) | pIC50 (BRD4 (BD1) protein) |
| --- | --- | --- |
| Cn1cncc1-c1nc2cc(C#N)ccc2n1-c1ccc2c(c1)n(C)c(=O)n2C | < 5.30 | < 5.30 |
| COC(=O)c1ccc(-c2ccc3c(c2)nc(-c2cncn2C)n3-c2ccc3c(c2)n(C)c(=O)n3C)cc1F | 5.30 to 6.30 | < 5.30 |
| Cn1cncc1-c1nc2cc(-c3ccc4[nH]cnc4c3)ccc2n1-c1ccc2c(c1)n(C)c(=O)n2C | > 6.30 | < 5.30 |
| CNC(=O)c1c(F)cc(-c2ccc3c(c2)nc(-c2cncn2C)n3-c2ccc3c(c2)n(C)c(=O)n3C)cc1F | 5.30 to 6.30 | 5.30 to 6.30 |
| Cn1cncc1-c1nc2cc(-c3cnn(CC(F)(F)F)c3)ccc2n1-c1ccc2c(c1)n(C)c(=O)n2C | 5.30 to 6.30 | < 5.30 |
| CNC(=O)c1ccc(-c2ccc3c(c2)nc(-c2ccccc2C)n3-c2ccc3c(c2)n(C)c(=O)n3C)cc1F | 5.30 to 6.30 | < 5.30 |
| CNC(=O)c1ccc(-c2ccc3c(c2)nc(CC2CCCCC2)n3-c2ccc3c(c2)n(C)c(=O)n3C)cc1F | < 5.30 | < 5.30 |
| CNC(=O)c1ccc(-c2ccc3c(c2)nc(-c2ccoc2C)n3-c2ccc3c(c2)n(C)c(=O)n3C)cc1F | 5.30 to 6.30 | < 5.30 |
| Cn1cncc1-c1nc2cc(-c3cncnc3)ccc2n1-c1ccc2c(c1)n(C)c(=O)n2C | 5.30 to 6.30 | < 5.30 |
| Cn1cncc1-c1nc2cc(-c3ccnc(F)c3)ccc2n1-c1ccc2c(c1)n(C)c(=O)n2C | 5.30 to 6.30 | < 5.30 |
| Cc1ccc2c(-c3nc4cc(C5CCNCC5)ccc4n3-c3ccc4c(c3)n(C)c(=O)n4C)c[nH]c2c1 | 5.30 to 6.30 | < 5.30 |
| CNC(=O)c1ccc(-c2ccc3c(c2)nc(-c2cncc(C)c2)n3-c2ccc3c(c2)n(C)c(=O)n3C)cc1F | 5.30 to 6.30 | < 5.30 |
| Cn1cncc1-c1nc2cc(-c3cn(CC(=O)N4CCCCC4)nn3)ccc2n1-c1ccc2c(c1)n(C)c(=O)n2C | 5.30 to 6.30 | < 5.30 |
| Cn1cncc1-c1nc2cc(-c3ccc(C=O)o3)ccc2n1-c1ccc2c(c1)n(C)c(=O)n2C | 5.30 to 6.30 | < 5.30 |
| CNC(=O)c1ccc(-c2ccc3c(c2)nc(-c2cccnc2)n3-c2ccc3c(c2)n(C)c(=O)n3C)cc1F | 5.30 to 6.30 | < 5.30 |
| CN(C)c1cccc(-c2ccc3c(c2)nc(-c2cncn2C)n3-c2ccc3c(c2)n(C)c(=O)n3C)c1 | > 6.30 | < 5.30 |
| Cn1cncc1-c1nc2cc(-c3ccc(O)c(F)c3)ccc2n1-c1ccc2c(c1)n(C)c(=O)n2C | > 6.30 | 5.30 to 6.30 |
| Cn1cncc1-c1nc2cc(-c3ccc(N)nc3)ccc2n1-c1ccc2c(c1)n(C)c(=O)n2C | > 6.30 | < 5.30 |
| Cn1cncc1-c1nc2cc(-c3ccc(N)cc3)ccc2n1-c1ccc2c(c1)n(C)c(=O)n2C | > 6.30 | 5.30 to 6.30 |
| CNC(=O)c1ccc(-c2ccc3c(c2)nc(Cc2ccccc2)n3-c2ccc3c(c2)n(C)c(=O)n3C)cc1F | < 5.30 | < 5.30 |
| Cn1cncc1-c1nc2cc(Nc3ccccc3)ccc2n1-c1ccc2c(c1)n(C)c(=O)n2C | 5.30 to 6.30 | < 5.30 |
| CNC(=O)c1cccc(-c2ccc3c(c2)nc(-c2cncn2C)n3-c2ccc3c(c2)n(C)c(=O)n3C)c1 | > 6.30 | 5.30 to 6.30 |
